## Ab-14 light chain CDR variants: yeast mating affinities

The measurements come from Engelhart et al. 2022 (doi:10.1038/s41597-022-01779-4) through the FLAb antibody collection.

Target peptide (SARS-CoV-2 spike, HR2 region): PDVDLGDISGINAS

Ab-14 is the parent antibody, in scFv form: VH, then a 15-residue (Gly4Ser)3 linker, then VL. The heavy chain is unchanged in all variants.
VH: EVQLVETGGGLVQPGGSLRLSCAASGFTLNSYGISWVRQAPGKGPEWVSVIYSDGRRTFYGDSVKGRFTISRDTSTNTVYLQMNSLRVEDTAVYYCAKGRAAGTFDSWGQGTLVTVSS
VL: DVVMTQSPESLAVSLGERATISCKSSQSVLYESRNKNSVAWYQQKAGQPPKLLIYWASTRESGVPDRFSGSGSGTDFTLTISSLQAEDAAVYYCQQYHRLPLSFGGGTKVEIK

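The starting antibody came from a phage panning campaign against this peptide. In library AAYL50, one, two or three CDR residues were substituted; doubles and triples were drawn at random. Affinity was read by AlphaSeq, a pooled yeast mating assay with surface-displayed partners. The frequency of each diploid, read from paired DNA barcodes, reflects how well the two displayed proteins bind. A regression on co-assayed BCL2-family reference pairs converts the normalised counts of each replicate to an apparent Kd. Mating was done three times.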

The parent's light chain CDRs are KSSQSVLYESRNKNSVA, WASTRES, QQYHRLPLS; each variant's own CDRs replace them letter for letter.
Each Kd is an estimate from the mating assay, the geometric mean of the replicates in which the pair was seen; lower is stronger.
"nd" marks a missing value. The strain was present, yet no cells mated with the target were sequenced in any replicate, which points to weak or no binding.
As a blank, each scFv also met three strains without target: over library AAYL50, 18% of these pairings were detected, typically at 15 µM and seldom below 970 nM.

| CDR-L1 | CDR-L2 | CDR-L3 | apparent Kd | seen in |
|---|---|---|---|---|
| KSSVSVLFESRNKNSVA | WASTRES | QQYHRLPLS | 3.9 nM | 3/3 |
| KSSASVLYESRNKNSVA | WASTREC | QQYMRLPLS | 19 nM | 3/3 |
| KSSQSVLYESRNKNSVA | WAVTKES | QQYHRLPLS | 2.5 µM | 3/3 |
| KSSQPVLYESRFKNSVA | WASTRES | QQYHRLPLT | nd | 0/3 |
| KSSQSVLYESRNKNSVA | SAATRES | QQYHRLPLS | 16 nM | 3/3 |
| KSSGSVLYEIRNKNSVA | WASMRES | QQYHRLPLS | 800 nM | 2/3 |
| KSSQSVMYESCNKNSVA | WASTRES | QQYHRLPLE | 52 nM | 3/3 |
| KSSQSVLYESRNKNQVA | WASTRES | QQYHRLTLS | 57 nM | 3/3 |
| KSSQSVPYESRNKNSVV | WASTRSS | QQYHRLPLS | nd | 0/3 |
| KSSQAELYYSRNKNSVA | WASTRES | QQYHRLPLS | 37 nM | 3/3 |
| KSSQSVSYDSRNKNSVA | WASTRES | QQYHRLPLS | 3.2 nM | 3/3 |
| KSSQSCLYESRNKNSVA | WASTRES | QQRHRLPLC | nd | 0/3 |
| KSSGSVLYESRNKNDVA | WASYRES | QQYHRLPLS | 1.6 µM | 3/3 |
| KSSQSVLYEFRNKNSVA | WASTRES | QQYVRLPLS | 95 nM | 3/3 |
| KSSQSVLYESRNINSVA | RASTRES | QQYHRLPLS | 9.4 nM | 3/3 |
| KSSQSVLYESYNKNSVA | WASTRES | QQFHDLPLS | nd | 0/3 |
| KPSQSVMYESRNKWSVA | WASTRES | QQYHRLPLS | 3.0 µM | 3/3 |
| KSSQSYLYESRNKNSVA | WGSTRES | QQYHRLPLS | 6.6 nM | 3/3 |
| KSSQSVLYESRNWNSVA | WASTRES | QPSHRLPLS | 1.0 µM | 3/3 |
| KDSQSVLYESRNKNSVA | WASTRES | AQWHRLPLS | 48 µM | 3/3 |
| KSSSEVLYESRNKNAVA | WASTRES | QQYHRLPLS | 4.1 nM | 3/3 |
| KSSQSVLWESRNKNSVA | WHSTRES | QQYHRLELS | 13 µM | 1/3 |
| NSSSSVLYESRNKNSVA | WASTRES | QQYHRLVLS | 8.6 µM | 1/3 |
| KSSQSVLYESRKKNSVA | WASTRES | QQYYNLPLS | 61 nM | 3/3 |
| KPSQSVLYESRNKNSVA | WASWRES | QQYHRLPLS | 640 nM | 1/3 |
| KSSQSVLLESREKNSVA | WASTRES | QQYHRLPLS | 7.3 µM | 2/3 |
| KSSQSVMYESRNKNSVA | WASTIES | QCYHRLPLS | nd | 0/3 |
| KSWQAVLYESRVKNSVA | WASTRES | QQYHRLPLS | 7.7 µM | 3/3 |
| KSSQSVLYCSRNKNSVA | WASTRES | QQYHRLPPS | 1.3 µM | 3/3 |
| KSSQSVLYESRNKNSVA | WASMEES | QQYHRLPLS | nd | 0/3 |
| KSSQSVLYESRNKNSVK | WASTRES | WQYHRLPLS | 5.6 µM | 1/3 |
| KSSQSVLYESRNKNKVA | WYSTRES | QQYKRLPLS | 970 µM | 1/3 |
| KSSQSVLYESRKKNSAA | WASTRES | QQYHKLPLS | 500 nM | 1/3 |
| KSSQSVLYESRGKNSVA | WYSTRES | PQYHRLPLS | 130 µM | 1/3 |
| KSSQSVQYGSRNKNSVA | WASTRES | QQYHRLPQS | 14 µM | 3/3 |
| VSSQSVLYESRNFNSVA | WASTRES | QQIHRLPLS | 2.8 µM | 2/3 |
| KSSQSVLYESRNKNSVA | WASHRES | QQRHQLPLS | 210 µM | 3/3 |
| KSSQSVLYESRDKNSVA | WASTRES | QEYHRSPLS | nd | 0/3 |
| KSSQSVLYESRNRNSVA | WASTPES | QQCHRLPLS | nd | 0/3 |

Further variants, results first:

| apparent Kd | seen in | CDR-L1 | CDR-L2 | CDR-L3 |
|---|---|---|---|---|
| nd | 0/3 | KSSQSVLYESRNKNSFA | WASTCES | QQYTRLPLS |
| 220 nM | 3/3 | KSSQSQLYESRNKNSVA | WASTRVR | QQYHRLPLS |
| 3.8 nM | 3/3 | KSSQSVLGETRNKNSVA | WASTRIS | QQYHRLPLS |
| nd | 0/3 | KSSQSVLVESRNKNSVV | WASTRES | QQYHRLLLS |
| 52 nM | 3/3 | TSSQSFLYESRNANSVA | WASTRES | QQYHRLPLS |
| 1.6 µM | 2/3 | KSSGSVLYESRNKTSVA | WASDRES | QQYHRLPLS |
| nd | 0/3 | KSSQSQLYESLNKNSHA | WASTRES | QQYHRLPLS |
| nd | 0/3 | KSSQSVLYESRNKNSVS | WAQTRES | QQYHRLPLS |
| 27 nM | 3/3 | KPSQSYLYESMNKNSVA | WASTRES | QQYHRLPLS |
| 270 nM | 3/3 | KSSQSVCYESRNKNSVA | WATMRES | QQYHRLPLS |
| 21 nM | 3/3 | KSSQSILYESRNKNSVA | WASERES | QQYHRLPLS |
| nd | 0/3 | KSMQSVLYESRNKNSVC | WASWRES | QQYHRLPLS |
| nd | 0/3 | DSSQSVLYESCNKNSVK | WASTRES | QQYHRLPLS |
| nd | 0/3 | KTSQSVLIESRNKNSVA | WASTCES | QQYHRLPLS |
| nd | 0/3 | KSMQSVLYESRAKNSVA | WASTRES | HQYHRLPLS |
| 82 nM | 3/3 | KSSQSVLLEYRNKNSVA | WASTRES | QQYHRLELS |
| nd | 0/3 | KSSQRVLYESRNKNSVL | MASTRES | QQYHRLPLS |
| nd | 0/3 | KSSQSVLYYSRNKHSVA | WASTRES | QQYHRAPLS |
| nd | 0/3 | KSSQSVLYESRNKNSEA | WASSREI | QQYHRLPLS |
| 37 µM | 1/3 | KSSQSVLYESRNCNSVA | PATTRES | QQYHRLPLS |
| 100 µM | 1/3 | KSSQSVLYESRNKNSVA | WASTRIS | QQYHRLPLM |
| nd | 0/3 | KSSQSVLYESRGKNSVA | WASTRES | QRYHHLPLS |
| 52 µM | 1/3 | YSLQSVLYESRNKNSVA | WASTRES | QQYFRLPLS |
| 56 nM | 3/3 | KSCQSVLYESRNKNSVA | WASTRGS | QQYIRLPLS |
| nd | 0/3 | KSSQSVLYESRNKNSVA | WALTRED | QQYHRYPLS |
| 7.1 µM | 3/3 | KSSQSYLPESRNKNSVA | WASTRES | QIYHRLPLS |
| nd | 0/3 | KSSQSVLYEKYNKNSVA | WYSTRES | QQYHRLPLS |
| nd | 0/3 | KSSQSHLYESRNKNSQA | WASTRES | QQYHRLRLS |
| nd | 0/3 | WSSQSVLYESRNKNSVA | WASTRES | QNYHPLPLS |
| nd | 0/3 | KSSQSVLYESRNKNSVA | WASTAES | LQYHRLPLI |
| nd | 0/3 | KSSQIVLYESRNKNSVK | WASTRES | FQYHRLPLS |
| 100 nM | 3/3 | KSSQSVLYESRNKNSVA | WAETRES | QQYHDLPLS |
| nd | 0/3 | KSSQSNLYESRNKNSVA | WASTRES | QQYHDLPLP |
| 1.5 µM | 2/3 | KSSQSVLYESRNKNGVA | WASTRES | AQYSRLPLS |
| 190 µM | 2/3 | KSSQSVAYESRNKNSVA | PASTRES | QQYHRLPLS |
| nd | 0/3 | KSCQSVLYESRNKWSVC | WASTRES | QQYHRLPLS |
| 320 µM | 1/3 | KSSQSVLYESRNKNSPA | YASTRES | QQYHRNPLS |
| 19 nM | 3/3 | KSSQSFLYESRWKNSVA | WASTREH | QQYHRLPLS |
| 610 nM | 1/3 | ISSQSVLYESRNKNSVA | WWNTRES | QQYHRLPLS |
| 320 nM | 3/3 | KSSQSVLYESRNKNGVA | WADTRHS | QQYHRLPLS |

For reference, 9 entries of the list once more:

CDR-L1,CDR-L2,CDR-L3,apparent Kd,seen in
KSSQSVLYESRNKNSVA,WAETRES,QQYHDLPLS,100 nM,3/3
KSMQSVLYESRNKNSVC,WASWRES,QQYHRLPLS,nd,0/3
KSSQSVQYGSRNKNSVA,WASTRES,QQYHRLPQS,14 µM,3/3
KSSQSQLYESRNKNSVA,WASTRVR,QQYHRLPLS,220 nM,3/3
KSSQSVLGETRNKNSVA,WASTRIS,QQYHRLPLS,3.8 nM,3/3
KSSQSVMYESCNKNSVA,WASTRES,QQYHRLPLE,52 nM,3/3
KSSQSVLYESRDKNSVA,WASTRES,QEYHRSPLS,nd,0/3
KSSQSNLYESRNKNSVA,WASTRES,QQYHDLPLP,nd,0/3
KSSQSVLYEKYNKNSVA,WYSTRES,QQYHRLPLS,nd,0/3